# Entries after “also recorded” stand apart in the source; their conditions may differ.
# Columns and labels:
# [1] = tested on: PD-1 expression on T-cells; experiment: FACS of PD-1 expression induced by mixed lymphocyte reaction (C57Bl/6 + ICR/CD1 spleen T-cells, 60 hours); type: cell-based, mouse
# PD-1 transcription = experiment: qPCR of PD-1 transcription in cells from EL4-OVA tumor-bearing OT-1 Tg mice; conditions: mouse
# Experimental: (§1) Single-strand cDNA was synthesized with an RT-PCR kit (Qiagen, Hilden, Germany) according to the manufacturer's instructions. Reverse transcription was performed using the RNA polymerase chain reaction (PCR) core kit (Applied Biosystems). Relative quantitative real-time PCR used SYBR green technology (Roche) on cDNA generated from the reverse transcription of purified RNA. After preamplification (95° C. for 2 min), the PCRs were amplified for 40 cycles (95° C. for 15 s and 60° C. for 60 s) in a sequence detection system (PE Prism 7000; Perkin-Elmer Applied Biosystems, USA). mRNA expression was normalized against GAPDH expression using the standard curve method.
# (§2) EL4 tumor cells taken from the log phase of in vitro growth were pulsed with ova peptide for 1 hr at 37 C before washing and injecting into OT-1 Tg mice (typically 3×10^6 cells). […] Tumors were clearly visible after 1 wk and grew progressively, in an encapsulated fashion. Induced tumors were measured on a daily basis using a vernier caliper (Helmich et al, 2001, J Immunol 166: 6500-6508; Quezada et al, 2010, J Exp Med 207: 637-650). […]
# EL4 tumor cells = experiment: Intradermal EL4 / EL4-OVA tumor model in OT-1 Tg mice, tumor growth; conditions: mouse, in vivo
# Tbet transcription = experiment: qPCR of Tbet transcription in cells from EL4-OVA tumor-bearing OT-1 Tg mice; conditions: mouse
# Experimental: as §1, §2
# CD3 expression = experiment: FACS of CD3 expression on OVA-activated OT-1 T-cells; type: cell-based, mouse
# Source text: (§3) The presence of cells was confirmed by using forward scatter height or side scatter height n the form of a dot and contor plots. […] Non-stained cells were used a control.
# [2] = tested on: Tbet (Tbx21) transcription; experiment: qPCR of Tbet transcription in OT-1 T-cells stimulated in vitro by OVA peptide/EL4; type: cell-based, mouse
# Experimental: as §1
# (§4) Cells were then stained for FACs with APC conjugated anti-PD-1 (CD279) (a, b) or subjected to qPCR (c, d) as described in the Materials and Methods. Reverse transcription was performed using the RNA polymerase chain reaction (PCR). PCRs were amplified for 40 cycles in a sequence detection system. mRNA expression was normalized against GAPDH (Glyceraldehyde 3-phosphate dehydrogenase) expression using the standard curve method.
# CD44 expression = tested on: CD44 expression
# Source text: as §3
# [3] = tested on: PD-1 expression on OT-1 T-cells; experiment: FACS of PD-1 surface expression on OT-1 T-cells stimulated in vitro by OVA peptide presented by EL-4 cells; type: cell-based, mouse
# Experimental: Non-stained cells were used a control.
# as §4
# T-cells were incubated in the presence or absence of anti-PD-1 and then subjected to FACs or qPCR as described in the Materials and Methods.
smiles,measurement,setting,value
"O=C1NC(=O)C(c2ccccc2[N+](=O)[O-])=C1Nc1ccc(O)c(Cl)c1 [SB415286, 3-(3-chloro-4-hydroxyphenylamino)-4-(2-nitrophenyl)-1H-pyrrole-2,5-dione]",PD-1 expression induced in the MLR (FACS),[1],inhibits PD-1 expression
same,PD-1 transcription in vivo (qPCR),PD-1 transcription,inhibited PD-1 transcription; also recorded: reduced tumor size and PD-1 transcription to the same extent as anti-PD-1 alone; also recorded: same as the level of PD-1 in the absence of tumor
same,tumor growth,EL4 tumor cells,prevented tumor growth at all concentrations of OVA peptide
same,tumor growth (tumor diameter),EL4 tumor cells,tumors were completely eliminated at all OVA concentrations
same,tumor growth of EL4 cells in the absence of OVA peptide,EL4 tumor cells,tumor was visible
same,Tbet transcription in vivo (qPCR),Tbet transcription,increased Tbet transcription; also recorded: increased Tbet expression
same,CD3 expression (FACS profile),CD3 expression,unaltered CD3 expression
same,Tbet transcription (qPCR),[2],increased Tbet transcription
same,CD44 expression (FACS profile),CD44 expression,unaltered CD44 expression
same,PD-1 surface expression (FACS profile),[3],reduces PD-1 expression

# — patent publication US20170165230A1, “USE OF GSK-3 INHIBITORS OR ACTIVATORS WHICH MODULATE PD-1 OR T-BET EXPRESSION TO MODULATE T CELL IMMUNITY” (priority 2014, published 2017)
